Protein sequences, listed by entry. Tags and fused reporters are not part of them.
UniProt P30542, whole entry: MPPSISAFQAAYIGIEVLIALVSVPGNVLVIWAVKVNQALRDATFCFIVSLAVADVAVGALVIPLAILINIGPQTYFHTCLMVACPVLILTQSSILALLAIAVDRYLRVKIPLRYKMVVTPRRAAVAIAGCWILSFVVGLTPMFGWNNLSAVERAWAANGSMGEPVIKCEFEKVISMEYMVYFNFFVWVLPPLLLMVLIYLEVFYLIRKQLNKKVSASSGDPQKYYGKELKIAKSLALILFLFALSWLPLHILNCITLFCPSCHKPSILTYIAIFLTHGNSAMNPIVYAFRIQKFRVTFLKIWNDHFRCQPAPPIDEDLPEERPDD
UniProt P25099, whole entry: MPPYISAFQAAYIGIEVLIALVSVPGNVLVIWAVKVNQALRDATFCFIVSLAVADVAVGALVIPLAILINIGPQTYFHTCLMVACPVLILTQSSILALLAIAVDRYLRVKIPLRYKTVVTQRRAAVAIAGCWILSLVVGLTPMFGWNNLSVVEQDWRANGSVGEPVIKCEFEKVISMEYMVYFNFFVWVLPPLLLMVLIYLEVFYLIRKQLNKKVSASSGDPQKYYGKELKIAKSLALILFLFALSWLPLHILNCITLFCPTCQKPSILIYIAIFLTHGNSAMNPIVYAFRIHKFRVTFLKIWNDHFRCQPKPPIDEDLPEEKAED
UniProt P0DMS8, whole entry: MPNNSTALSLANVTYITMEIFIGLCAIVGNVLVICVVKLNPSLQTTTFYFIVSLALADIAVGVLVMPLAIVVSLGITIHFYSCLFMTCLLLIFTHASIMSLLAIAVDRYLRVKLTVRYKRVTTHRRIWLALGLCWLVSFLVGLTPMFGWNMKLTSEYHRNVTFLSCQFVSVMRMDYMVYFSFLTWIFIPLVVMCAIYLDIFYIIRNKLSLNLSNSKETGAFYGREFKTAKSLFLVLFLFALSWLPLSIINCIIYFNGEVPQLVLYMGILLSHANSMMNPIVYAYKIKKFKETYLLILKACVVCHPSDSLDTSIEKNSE

In PMC9293909 (Nature Communications, 2022):

Columns and labels:
hA1R:Goa = hA1R:Goa (Homo sapiens, UniProt P30542); experiment: cAMP inhibition in PTX-treated CHO-K1-hA1R cells with PTX-insensitive Goa (incl. Schild analysis, bias); assay type: cell-based; set-up: host or cells: CHO-K1-hA1R (made in-house), PTX-treated; conditions: inhibition of forskolin-stimulated cAMP
rA1R = molecular target: T1, rA1R (Rattus norvegicus, UniProt P25099); experiment: cAMP inhibition at rA1R (transiently transfected CHO-K1); assay type: cell-based; conditions: range of response as percentage of response to 10 μM forskolin
T1 construct: expressed in transfected cells; host or cells: CHO-K1 (transient, 48 h)

[1] = molecular target: T2, β-arrestin2 recruitment to hA3R (Homo sapiens, UniProt P0DMS8); experiment: BRET β-arrestin2 recruitment to A3R, HEK 293T; assay type: cell-based
T2 construct: expressed in transfected cells; host or cells: HEK 293T (ATCC CRL-3216), transient

hA3R = molecular target: T3, hA3R (Homo sapiens, UniProt P0DMS8); experiment: cAMP inhibition at hA3R; assay type: cell-based; conditions: range of response as percentage of response to 10 μM forskolin
T3 construct: expressed in transfected cells; host or cells: CHO-K1

hA1R:Gob = hA1R:Gob (Homo sapiens, UniProt P30542); experiment: cAMP inhibition in PTX-treated CHO-K1-hA1R cells with PTX-insensitive Gob; conditions: inhibition of forskolin-stimulated cAMP
hA1R = hA1R (Homo sapiens, UniProt P30542); experiment: cAMP inhibition in CHO-K1-hA1R cells (forskolin co-stimulation); conditions: range of response as percentage of response to 10 μM forskolin
hA1R:Gi2 = hA1R:Gi2 (Homo sapiens, UniProt P30542); experiment: cAMP inhibition in PTX-treated CHO-K1-hA1R cells with PTX-insensitive Gi2; assay type: cell-based; conditions: inhibition of forskolin-stimulated cAMP

CCNC(=O)[C@H]1O[C@@H](n2cnc3c(N)ncnc32)[C@H](O)[C@@H]1O [NECA, 5′-(N-Ethylcarboxamido) adenosine]
Emax Goa (hA1R:Goa): -20.94%
Range rA1R (rA1R): 37.17 ± 5.49%
β-arrestin2 recruitment by the A3R [1]: β-arrestin2 recruitment
Range hA3R (hA3R): 33.43 ± 3.1%
Emax Gob (hA1R:Gob): -10.06%
Range hA1R (hA1R): 34.33 ± 4.0%
Emax Gi2 (hA1R:Gi2): -8.08%
